Values quoted from earlier work, collected in article PMC5744648.

Amino acid sequences for entries named in this document (tags omitted). A change or cut given only in a name is not applied to a line headed by its entry.
UniProt Q99788: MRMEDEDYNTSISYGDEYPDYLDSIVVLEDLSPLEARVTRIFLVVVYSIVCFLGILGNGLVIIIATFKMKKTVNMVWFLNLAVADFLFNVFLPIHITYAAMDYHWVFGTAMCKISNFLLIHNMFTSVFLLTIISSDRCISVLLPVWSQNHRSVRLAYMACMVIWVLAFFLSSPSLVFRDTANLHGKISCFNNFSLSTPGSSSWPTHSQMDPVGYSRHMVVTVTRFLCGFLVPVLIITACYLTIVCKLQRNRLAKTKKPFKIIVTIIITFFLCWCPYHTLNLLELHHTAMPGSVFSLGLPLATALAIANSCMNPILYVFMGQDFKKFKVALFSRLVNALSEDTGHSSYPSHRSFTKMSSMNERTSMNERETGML

Target: CMKLR1 (Chemerin1) (Homo sapiens) (UniProt Q99788)
Assay: fluorescent ligand cell binding

Kd: 800 nM
Substance: Amyloid-beta 42 672-713 (from UniProt P05067)
